Reference: ChEMBL document CHEMBL1201862, “PubChem BioAssay data set” (2004)
Where “and” joins values, the source holds several entries; their conditions need not be identical. Equal entries are not always repeated. Calls of active or inactive are those of the source.

Protein sequences, listed by entry. Tags and fused reporters are not part of them. Lines headed by an entry give the natural chain unless they say otherwise; changes in a name come on top.
UniProt Q932Y6, whole entry: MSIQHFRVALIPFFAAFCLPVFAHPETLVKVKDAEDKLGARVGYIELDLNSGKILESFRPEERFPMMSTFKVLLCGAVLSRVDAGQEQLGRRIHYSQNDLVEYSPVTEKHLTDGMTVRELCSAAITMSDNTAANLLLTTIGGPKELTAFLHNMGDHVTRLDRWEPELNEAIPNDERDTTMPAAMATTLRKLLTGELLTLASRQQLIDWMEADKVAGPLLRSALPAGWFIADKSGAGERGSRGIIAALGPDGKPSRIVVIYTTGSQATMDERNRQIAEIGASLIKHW
UniProt P49759: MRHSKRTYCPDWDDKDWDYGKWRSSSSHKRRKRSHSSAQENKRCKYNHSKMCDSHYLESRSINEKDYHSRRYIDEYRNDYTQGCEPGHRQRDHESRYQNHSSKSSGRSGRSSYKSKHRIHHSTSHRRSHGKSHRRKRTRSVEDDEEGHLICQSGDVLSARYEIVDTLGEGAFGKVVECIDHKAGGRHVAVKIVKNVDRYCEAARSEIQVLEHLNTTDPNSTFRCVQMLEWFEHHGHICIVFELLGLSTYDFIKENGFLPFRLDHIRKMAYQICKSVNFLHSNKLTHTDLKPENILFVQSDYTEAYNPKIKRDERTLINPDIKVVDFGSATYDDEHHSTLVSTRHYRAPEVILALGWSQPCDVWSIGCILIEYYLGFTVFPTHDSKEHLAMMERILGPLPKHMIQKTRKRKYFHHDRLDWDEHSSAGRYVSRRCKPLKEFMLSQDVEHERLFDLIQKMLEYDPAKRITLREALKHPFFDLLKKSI
UniProt P24822: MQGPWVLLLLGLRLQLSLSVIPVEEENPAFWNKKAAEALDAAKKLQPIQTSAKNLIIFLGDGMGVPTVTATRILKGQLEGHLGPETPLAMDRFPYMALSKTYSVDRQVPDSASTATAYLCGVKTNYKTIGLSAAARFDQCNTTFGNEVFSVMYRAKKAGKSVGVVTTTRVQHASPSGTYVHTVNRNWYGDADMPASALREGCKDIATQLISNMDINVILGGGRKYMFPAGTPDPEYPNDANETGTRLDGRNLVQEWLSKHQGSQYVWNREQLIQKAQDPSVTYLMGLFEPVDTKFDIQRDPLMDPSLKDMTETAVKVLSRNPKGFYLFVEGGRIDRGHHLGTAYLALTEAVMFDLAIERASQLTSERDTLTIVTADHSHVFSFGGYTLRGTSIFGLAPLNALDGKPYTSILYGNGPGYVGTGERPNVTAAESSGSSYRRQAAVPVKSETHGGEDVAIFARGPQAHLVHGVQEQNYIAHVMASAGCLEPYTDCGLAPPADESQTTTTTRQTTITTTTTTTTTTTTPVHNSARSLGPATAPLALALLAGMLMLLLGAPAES

How the values were obtained:
[1] = target: T1, Hepatocyte nuclear factor 4-alpha (Homo sapiens, UniProt P41235); assay type: functional, cell-based;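 note: biochemical luminescence-based dose-response counterscreen measuring inhibition of HNF4 dimerization, run alongside a screen for blockers of ABHD5–perilipin-5 interaction; split luciferase complementation of HNF4 fusion proteins in cell lysate measuring dimerization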
T1 sequence (P41235 whole entry): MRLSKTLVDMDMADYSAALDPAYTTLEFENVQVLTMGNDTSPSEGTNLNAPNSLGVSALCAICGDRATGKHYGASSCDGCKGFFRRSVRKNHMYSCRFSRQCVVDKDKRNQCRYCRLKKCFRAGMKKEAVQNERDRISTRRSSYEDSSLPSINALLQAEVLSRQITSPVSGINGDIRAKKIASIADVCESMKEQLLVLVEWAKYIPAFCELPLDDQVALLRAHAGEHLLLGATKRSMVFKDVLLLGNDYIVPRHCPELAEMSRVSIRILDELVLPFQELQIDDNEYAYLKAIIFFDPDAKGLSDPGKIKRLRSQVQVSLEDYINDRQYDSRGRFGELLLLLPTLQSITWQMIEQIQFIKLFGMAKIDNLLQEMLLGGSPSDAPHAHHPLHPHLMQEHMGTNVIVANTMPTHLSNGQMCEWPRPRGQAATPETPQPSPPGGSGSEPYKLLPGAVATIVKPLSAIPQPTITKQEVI

Beta Lactamase = Beta Lactamase (Pseudomonas aeruginosa, UniProt Q932Y6); assay: beta-lactamase reporter inhibitor potency, dose response, artefact control for TLR9-MyD88 binding inhibitor project, BLA reporter cells, FRET fluorescence (AID 588341); assay type: cell-based;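 note: cell based assay in CHO-K1 cells stably expressing beta-lactamase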
cells = assay type: functional
[2] = target: T2, Corticotropin-releasing factor receptor 2/Corticotropin-releasing factor-binding protein (Homo sapiens, UniProt P24387+Q13324); assay: activators of CRF receptor 2 with binding protein – uHTS hits, confirmation (AID 602473); assay type: functional; settings: read-out: EC50_Mean
T2 sequence (Q13324 whole entry): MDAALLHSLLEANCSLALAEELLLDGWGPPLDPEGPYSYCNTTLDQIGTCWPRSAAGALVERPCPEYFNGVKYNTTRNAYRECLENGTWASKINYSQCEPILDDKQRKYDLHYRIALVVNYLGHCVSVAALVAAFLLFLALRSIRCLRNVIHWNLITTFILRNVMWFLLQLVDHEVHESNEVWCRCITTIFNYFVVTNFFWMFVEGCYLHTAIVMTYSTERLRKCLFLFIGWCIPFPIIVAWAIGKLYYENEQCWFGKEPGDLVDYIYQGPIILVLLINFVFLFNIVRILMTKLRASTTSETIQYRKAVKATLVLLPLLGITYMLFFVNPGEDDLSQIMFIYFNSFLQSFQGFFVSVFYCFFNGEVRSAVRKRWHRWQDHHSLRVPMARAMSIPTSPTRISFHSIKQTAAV
T2 sequence (P24387 whole entry): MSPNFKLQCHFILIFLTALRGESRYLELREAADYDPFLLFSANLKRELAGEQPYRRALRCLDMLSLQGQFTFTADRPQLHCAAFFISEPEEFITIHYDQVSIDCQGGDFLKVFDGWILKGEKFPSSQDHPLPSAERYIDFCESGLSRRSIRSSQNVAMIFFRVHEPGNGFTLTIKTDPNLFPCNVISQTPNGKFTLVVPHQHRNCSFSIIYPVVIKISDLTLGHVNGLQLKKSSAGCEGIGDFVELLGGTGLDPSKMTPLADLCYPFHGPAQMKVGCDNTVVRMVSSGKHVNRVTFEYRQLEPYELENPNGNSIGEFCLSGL

[3] = target: T2, Corticotropin-releasing factor receptor 2/Corticotropin-releasing factor-binding protein; assay: Dose Response confirmation of uHTS hits for small molecule antagonists of the CRF-binding protein and CRF-R2 receptor complex.; assay type: functional; settings: read-out: IC50_Mean
[4] = CRF-BP/CRF-R2 complex antagonists, dose response, cell-based, uHTS hits, 384-well (AID 651639); assay type: functional, Homo sapiens; settings: read-out: IC50_Mean
[5] = target: Dual specificity protein kinase CLK1 (Homo sapiens, UniProt P49759); assay: CLK1 kinase inhibitors, off-target check, dose response, selectivity assay for Dyrk1A inhibitor project, biochemical, cherry-picked samples (AID 588811)
[6] = target: T3, Mitogen-activated protein kinase kinase kinase kinase 2 (Homo sapiens, UniProt Q12851); assay type: functional;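 note: measured as one member of a kinome-wide kinase panel, with MAP4K2 as the panel entry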
T3 sequence (Q12851 whole entry): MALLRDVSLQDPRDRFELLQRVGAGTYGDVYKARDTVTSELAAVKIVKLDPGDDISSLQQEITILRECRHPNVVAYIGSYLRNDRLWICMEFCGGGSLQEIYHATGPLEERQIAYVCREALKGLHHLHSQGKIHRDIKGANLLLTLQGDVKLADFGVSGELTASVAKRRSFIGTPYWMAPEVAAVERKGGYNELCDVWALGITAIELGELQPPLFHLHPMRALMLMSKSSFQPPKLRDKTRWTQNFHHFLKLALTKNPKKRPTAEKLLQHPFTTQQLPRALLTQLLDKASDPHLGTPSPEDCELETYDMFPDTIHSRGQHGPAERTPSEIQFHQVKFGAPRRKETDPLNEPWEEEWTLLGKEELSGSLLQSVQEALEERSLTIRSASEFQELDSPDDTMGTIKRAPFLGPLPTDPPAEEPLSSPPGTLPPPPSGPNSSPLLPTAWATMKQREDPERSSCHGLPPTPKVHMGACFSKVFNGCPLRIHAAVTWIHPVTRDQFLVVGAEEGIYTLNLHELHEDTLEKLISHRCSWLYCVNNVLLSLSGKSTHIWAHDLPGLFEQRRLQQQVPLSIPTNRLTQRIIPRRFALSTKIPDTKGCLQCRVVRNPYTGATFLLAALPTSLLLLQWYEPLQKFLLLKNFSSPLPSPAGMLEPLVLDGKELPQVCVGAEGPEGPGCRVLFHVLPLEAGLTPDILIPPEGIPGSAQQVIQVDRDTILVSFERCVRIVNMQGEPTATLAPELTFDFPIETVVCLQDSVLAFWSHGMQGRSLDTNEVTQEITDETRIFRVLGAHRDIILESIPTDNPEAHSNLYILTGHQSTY

[7] = target: Intestinal-type alkaline phosphatase (Mus musculus, UniProt P24822); assay: PubChem AID 488785; assay type: functional

CC(=O)Nc1ccc(OCc2cn(CC(=O)c3ccc(O)cc3)nn2)cc1
IC50 [1]: active: 3.99 µM

O=c1c(Cl)c(Cl)cnn1Cc1nnc(-c2ccccc2Br)o1
IC50 (Beta Lactamase): inactive: > 49.8 µM

O=C(Nc1cccnc1)c1ccc([N+](=O)[O-])s1
IC50 (cells): active: 8.97 µM

CCc1nnc(NS(=O)(=O)c2ccc(/N=C/c3c(C)[nH]n(-c4cccc(Cl)c4)c3=O)cc2)s1
EC50 [2]: inactive: > 53 µM
IC50 [3]: active: < 0.368 µM
IC50 [4]: inactive: 20 µM

c1coc(CCNc2ncnc3ccc(-c4ccc5c(c4)OCO5)cc23)c1
AC50 [5]: active: < 0.00195 µM

Cc1cc(Nc2cc(N3CCN(C)CC3)nc(Sc3ccc(NC(=O)C4CC4)cc3)n2)[nH]n1 [TOZASERTIB]
Ki [6]: inactive: > 3.16 µM

COc1cc(/C=C/C(=O)CC(=O)/C=C/c2ccc(O)c(OC)c2)ccc1O [CURCUMIN]
IC50 [7]: active: 18.7 µM and active: 12 µM
